No end group written: not given here.
How the values were obtained:
hippocampal cells = assay: Aggregate cultures of dissociated hippocampal cells (NCAM mediated cell adhesion); conditions: 24 h in culture
hippocampal neurons = assay: Neurite outgrowth from hippocampal neurons, stereological total neurite length per cell (ProcessLength)

Substance	number of neuronal processes formed (hippocampal cells)	optimal concentration for neuritogenic effect (hippocampal neurons)	neurite outgrowth (total neurite length per cell) (hippocampal neurons; low density culture, 24 h)
C3d: Dendrimer of four C3 peptide monomers coupled to a backbone consisting of three lysines (ASKKPKRNIKA; also: dendrimer of four monomers coupled to a backbone of three lysines)	increase in the number of neuronal processes formed	–	–
Ig2-pd: Dendrimer of the Ig2-peptide composed of four monomers coupled to a lysine backbone (GRILARGEINFK; also: dendrimer of four monomers coupled to a lysine backbone)	–	3.6 µM	strong neuritogenic effect with a bell shaped dose-response relationship

Reference: patent publication US7402560B2, “NCAM binding compounds” (priority 1998, dated 2008)
